Source: the kinase profiling compilation of Christmann-Franck et al. (2016)

Amino acid sequences for entries named in this document (tags omitted). A change or cut given only in a name is not applied to a line headed by its entry.
UniProt P53355: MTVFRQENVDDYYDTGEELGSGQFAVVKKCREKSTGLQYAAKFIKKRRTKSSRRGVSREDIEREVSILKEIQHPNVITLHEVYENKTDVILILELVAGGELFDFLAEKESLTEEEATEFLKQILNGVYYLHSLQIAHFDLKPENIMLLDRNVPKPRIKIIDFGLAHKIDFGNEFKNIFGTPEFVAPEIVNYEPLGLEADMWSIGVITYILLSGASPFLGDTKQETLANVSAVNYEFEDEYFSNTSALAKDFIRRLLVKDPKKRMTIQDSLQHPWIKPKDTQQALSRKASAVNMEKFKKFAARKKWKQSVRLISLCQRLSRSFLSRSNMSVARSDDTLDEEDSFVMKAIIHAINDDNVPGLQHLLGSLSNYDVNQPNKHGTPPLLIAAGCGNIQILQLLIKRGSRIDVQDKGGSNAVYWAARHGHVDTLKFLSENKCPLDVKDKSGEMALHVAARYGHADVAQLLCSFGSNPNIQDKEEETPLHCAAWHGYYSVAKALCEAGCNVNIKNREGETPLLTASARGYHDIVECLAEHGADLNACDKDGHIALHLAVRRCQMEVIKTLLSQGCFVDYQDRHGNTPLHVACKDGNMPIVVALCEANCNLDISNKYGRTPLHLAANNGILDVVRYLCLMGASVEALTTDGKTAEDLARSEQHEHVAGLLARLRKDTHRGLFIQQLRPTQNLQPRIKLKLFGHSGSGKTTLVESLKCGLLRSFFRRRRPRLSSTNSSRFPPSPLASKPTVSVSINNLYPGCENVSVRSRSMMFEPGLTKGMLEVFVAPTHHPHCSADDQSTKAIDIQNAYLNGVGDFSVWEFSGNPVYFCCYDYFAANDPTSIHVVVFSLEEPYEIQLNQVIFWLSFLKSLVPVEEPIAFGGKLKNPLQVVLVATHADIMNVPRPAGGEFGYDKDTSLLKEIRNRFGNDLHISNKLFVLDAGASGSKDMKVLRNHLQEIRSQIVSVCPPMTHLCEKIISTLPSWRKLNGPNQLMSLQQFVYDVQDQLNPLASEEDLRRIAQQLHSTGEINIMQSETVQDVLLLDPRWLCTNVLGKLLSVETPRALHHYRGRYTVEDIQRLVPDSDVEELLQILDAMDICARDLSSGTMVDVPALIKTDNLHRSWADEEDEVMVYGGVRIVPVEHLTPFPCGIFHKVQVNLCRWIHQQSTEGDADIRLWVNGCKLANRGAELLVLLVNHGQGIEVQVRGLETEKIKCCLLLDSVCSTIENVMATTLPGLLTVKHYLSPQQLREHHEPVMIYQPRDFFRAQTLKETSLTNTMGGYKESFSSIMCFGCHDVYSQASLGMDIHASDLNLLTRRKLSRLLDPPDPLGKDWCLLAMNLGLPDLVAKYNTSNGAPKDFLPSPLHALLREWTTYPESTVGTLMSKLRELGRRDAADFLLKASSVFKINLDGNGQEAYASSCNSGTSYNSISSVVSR
UniProt Q96BR1: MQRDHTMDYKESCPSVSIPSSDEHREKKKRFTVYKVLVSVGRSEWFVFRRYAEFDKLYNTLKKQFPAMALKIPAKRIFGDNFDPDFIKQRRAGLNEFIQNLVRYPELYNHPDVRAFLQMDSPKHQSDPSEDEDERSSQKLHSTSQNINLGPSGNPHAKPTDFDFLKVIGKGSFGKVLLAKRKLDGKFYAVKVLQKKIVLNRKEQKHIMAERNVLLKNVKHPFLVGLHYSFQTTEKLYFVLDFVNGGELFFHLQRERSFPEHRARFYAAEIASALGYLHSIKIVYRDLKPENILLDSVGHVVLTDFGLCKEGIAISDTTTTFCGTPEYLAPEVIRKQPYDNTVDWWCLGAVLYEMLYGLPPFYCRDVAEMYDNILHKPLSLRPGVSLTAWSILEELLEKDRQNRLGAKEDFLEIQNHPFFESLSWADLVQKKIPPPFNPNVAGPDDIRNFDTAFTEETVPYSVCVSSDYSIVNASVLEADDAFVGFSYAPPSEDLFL
UniProt Q9Y3S1: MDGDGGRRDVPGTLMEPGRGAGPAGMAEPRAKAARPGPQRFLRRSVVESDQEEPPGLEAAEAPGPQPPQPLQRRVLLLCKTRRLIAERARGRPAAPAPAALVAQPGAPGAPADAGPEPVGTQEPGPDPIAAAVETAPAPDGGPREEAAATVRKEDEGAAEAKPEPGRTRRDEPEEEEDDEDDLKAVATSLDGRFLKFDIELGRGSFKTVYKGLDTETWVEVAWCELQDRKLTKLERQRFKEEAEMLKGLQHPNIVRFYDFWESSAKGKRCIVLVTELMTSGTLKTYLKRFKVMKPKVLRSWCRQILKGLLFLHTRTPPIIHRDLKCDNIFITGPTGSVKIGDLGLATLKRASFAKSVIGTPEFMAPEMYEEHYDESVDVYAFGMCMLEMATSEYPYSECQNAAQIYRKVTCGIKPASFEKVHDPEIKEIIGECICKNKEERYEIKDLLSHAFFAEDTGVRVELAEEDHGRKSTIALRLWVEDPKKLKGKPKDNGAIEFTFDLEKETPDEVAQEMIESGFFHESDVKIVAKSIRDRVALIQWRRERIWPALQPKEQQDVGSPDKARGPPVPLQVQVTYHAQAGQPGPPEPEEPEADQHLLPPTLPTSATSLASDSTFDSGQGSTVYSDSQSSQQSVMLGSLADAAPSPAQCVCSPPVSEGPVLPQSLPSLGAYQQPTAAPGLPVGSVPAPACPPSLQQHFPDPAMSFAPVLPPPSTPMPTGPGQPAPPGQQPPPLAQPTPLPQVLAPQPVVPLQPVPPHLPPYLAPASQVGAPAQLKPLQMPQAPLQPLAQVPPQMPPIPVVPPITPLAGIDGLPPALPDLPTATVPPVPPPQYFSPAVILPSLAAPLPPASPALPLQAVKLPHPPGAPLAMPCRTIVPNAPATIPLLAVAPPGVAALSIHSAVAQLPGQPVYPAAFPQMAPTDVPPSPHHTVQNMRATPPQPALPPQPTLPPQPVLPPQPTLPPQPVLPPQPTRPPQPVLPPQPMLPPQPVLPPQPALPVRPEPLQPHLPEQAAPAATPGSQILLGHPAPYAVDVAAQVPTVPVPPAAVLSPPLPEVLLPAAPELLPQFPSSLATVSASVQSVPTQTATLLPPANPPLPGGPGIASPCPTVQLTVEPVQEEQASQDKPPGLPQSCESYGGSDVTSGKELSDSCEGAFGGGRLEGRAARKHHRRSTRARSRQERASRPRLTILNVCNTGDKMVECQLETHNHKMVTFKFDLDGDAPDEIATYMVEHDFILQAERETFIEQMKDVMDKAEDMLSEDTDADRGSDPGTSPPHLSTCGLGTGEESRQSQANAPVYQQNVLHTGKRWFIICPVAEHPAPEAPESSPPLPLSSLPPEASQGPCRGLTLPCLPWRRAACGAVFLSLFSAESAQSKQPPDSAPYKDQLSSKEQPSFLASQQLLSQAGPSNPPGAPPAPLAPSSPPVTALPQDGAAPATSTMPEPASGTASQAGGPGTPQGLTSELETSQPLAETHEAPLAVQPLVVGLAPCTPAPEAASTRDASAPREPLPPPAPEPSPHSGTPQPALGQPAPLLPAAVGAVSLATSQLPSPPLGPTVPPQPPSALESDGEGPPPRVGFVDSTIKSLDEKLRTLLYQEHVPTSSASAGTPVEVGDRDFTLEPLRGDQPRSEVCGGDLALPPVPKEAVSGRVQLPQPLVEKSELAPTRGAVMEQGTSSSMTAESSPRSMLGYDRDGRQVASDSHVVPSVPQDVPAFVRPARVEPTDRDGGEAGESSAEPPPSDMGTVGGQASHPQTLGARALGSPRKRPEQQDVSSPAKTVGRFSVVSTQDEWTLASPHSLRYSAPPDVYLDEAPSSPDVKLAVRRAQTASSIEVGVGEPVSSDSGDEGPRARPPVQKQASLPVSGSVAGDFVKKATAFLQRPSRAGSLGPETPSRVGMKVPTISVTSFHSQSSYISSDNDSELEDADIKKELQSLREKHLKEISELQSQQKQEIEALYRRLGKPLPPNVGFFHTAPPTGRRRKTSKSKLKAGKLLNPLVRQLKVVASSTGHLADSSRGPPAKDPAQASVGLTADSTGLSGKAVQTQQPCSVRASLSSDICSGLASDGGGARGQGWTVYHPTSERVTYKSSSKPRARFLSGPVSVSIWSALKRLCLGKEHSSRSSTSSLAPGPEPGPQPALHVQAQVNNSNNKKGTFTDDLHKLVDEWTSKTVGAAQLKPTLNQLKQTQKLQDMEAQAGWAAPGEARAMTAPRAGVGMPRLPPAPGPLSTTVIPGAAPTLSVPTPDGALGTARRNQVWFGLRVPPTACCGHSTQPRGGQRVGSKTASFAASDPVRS
UniProt P43403: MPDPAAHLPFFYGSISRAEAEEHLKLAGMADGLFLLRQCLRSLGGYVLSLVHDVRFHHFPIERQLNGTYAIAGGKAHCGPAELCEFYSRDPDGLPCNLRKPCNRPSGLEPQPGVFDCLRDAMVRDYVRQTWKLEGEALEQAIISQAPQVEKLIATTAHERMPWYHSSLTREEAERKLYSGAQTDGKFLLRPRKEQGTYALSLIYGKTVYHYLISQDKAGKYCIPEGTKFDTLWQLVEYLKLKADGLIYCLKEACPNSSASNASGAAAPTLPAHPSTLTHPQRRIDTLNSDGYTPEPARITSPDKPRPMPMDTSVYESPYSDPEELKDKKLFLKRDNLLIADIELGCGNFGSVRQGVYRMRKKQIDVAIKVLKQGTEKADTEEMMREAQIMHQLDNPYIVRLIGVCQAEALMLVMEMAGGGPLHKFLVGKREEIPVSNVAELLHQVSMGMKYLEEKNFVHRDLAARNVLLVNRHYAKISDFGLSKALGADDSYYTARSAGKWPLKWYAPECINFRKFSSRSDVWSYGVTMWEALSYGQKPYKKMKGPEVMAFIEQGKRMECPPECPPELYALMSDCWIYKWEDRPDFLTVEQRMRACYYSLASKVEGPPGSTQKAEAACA
UniProt Q9Y2U5: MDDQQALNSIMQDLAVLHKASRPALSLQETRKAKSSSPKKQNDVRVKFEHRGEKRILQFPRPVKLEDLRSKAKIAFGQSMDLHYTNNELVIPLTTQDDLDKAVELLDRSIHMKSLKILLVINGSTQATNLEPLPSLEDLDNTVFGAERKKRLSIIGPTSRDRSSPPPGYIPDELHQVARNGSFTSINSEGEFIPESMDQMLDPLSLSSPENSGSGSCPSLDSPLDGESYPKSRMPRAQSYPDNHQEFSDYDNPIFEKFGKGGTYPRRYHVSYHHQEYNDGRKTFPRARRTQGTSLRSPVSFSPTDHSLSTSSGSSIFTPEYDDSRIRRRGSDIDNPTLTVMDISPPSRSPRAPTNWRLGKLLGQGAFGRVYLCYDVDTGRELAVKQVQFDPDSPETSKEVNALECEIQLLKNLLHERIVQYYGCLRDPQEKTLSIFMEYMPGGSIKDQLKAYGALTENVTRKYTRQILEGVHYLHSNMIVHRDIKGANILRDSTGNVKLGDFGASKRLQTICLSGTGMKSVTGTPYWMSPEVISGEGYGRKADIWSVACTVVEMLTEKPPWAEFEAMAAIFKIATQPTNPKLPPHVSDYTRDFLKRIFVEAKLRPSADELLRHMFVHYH
UniProt O00506, whole entry, looked up: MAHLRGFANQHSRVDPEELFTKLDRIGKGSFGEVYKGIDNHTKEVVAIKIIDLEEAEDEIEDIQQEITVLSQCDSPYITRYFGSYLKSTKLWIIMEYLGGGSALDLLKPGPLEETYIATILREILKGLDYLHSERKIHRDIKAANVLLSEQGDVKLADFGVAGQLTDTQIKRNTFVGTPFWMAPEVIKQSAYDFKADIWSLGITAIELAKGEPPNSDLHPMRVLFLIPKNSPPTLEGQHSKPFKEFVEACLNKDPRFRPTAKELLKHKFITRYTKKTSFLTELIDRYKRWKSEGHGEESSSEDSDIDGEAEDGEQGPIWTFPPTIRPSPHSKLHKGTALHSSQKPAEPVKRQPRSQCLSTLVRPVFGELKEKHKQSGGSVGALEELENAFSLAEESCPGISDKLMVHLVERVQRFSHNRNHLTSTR
UniProt P43250, whole entry, looked up: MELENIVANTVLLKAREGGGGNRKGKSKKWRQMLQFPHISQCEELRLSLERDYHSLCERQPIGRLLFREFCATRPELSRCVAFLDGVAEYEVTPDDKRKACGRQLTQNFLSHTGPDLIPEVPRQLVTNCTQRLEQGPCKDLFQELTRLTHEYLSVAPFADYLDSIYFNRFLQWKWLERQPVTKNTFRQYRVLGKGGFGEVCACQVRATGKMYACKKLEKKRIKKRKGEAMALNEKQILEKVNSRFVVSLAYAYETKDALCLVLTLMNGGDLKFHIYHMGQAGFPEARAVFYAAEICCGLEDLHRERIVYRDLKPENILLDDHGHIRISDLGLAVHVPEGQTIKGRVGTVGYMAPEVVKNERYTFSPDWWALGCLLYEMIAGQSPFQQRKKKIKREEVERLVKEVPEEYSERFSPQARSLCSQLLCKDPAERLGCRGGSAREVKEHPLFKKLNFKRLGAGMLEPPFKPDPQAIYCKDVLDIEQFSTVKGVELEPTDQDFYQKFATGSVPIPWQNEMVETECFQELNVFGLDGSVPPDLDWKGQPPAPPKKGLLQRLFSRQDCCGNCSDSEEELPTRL

How the values were obtained:
Test in all cases: radiometric filter-binding kinase assay, Kinase HotSpot
Settings in all cases: compound 0.5 µM; ATP 10 µM
BLK (human) = BLK (human) (UniProt P51451)
EPHA4 (human) = EPHA4 (human) (UniProt P54764)
CSNK1G1 (human) = CSNK1G1 (human) (UniProt Q9HCP0)
CAMK2B (human) = CAMK2B (human) (UniProt Q13554)
CSNK1G2 (human) = CSNK1G2 (human) (UniProt P78368)
NEK2 (human) = NEK2 (human) (UniProt P51955)
TXK (human) = TXK (human) (UniProt P42681)
DAPK1 (human) = DAPK1 (human) (UniProt P53355)
CSNK1D (human) = CSNK1D (human) (UniProt P48730)
BRAF (human) = BRAF (human) (UniProt P15056)
EGFR (human) = EGFR (human) (UniProt P00533)
VRK1 (human) = VRK1 (human) (UniProt Q99986)
PASK (human) = PASK (human) (UniProt Q96RG2)
CDC42BPA (human) = CDC42BPA (human) (UniProt Q5VT25)
SGK3 (human) = SGK3 (human) (UniProt Q96BR1)
RPS6KB1 (human) = RPS6KB1 (human) (UniProt P23443)
SRPK3 (human) = SRPK3 (human) (UniProt Q9UPE1)
AURKB (human) = AURKB (human) (UniProt Q96GD4)
PAK1 (human) = PAK1 (human) (UniProt Q13153)
MAPK12 (human) = MAPK12 (human) (UniProt P53778)
IRAK4 (human) = IRAK4 (human) (UniProt Q9NWZ3)
DAPK3 (human) = DAPK3 (human) (UniProt O43293)
TYRO3 (human) = TYRO3 (human) (UniProt Q06418)
SYK (human) = SYK (human) (UniProt P43405)
GSG2 (human) = GSG2 (human) (UniProt Q8TF76)
STK10 (human) = STK10 (human) (UniProt O94804)
ALK (human) = ALK (human) (UniProt Q9UM73)
WNK2 (human) = WNK2 (human) (UniProt Q9Y3S1)
MST4 (human) = MST4 (human) (UniProt Q9P289)
ZAP70 (human) = ZAP70 (human) (UniProt P43403)
PAK3 (human) = PAK3 (human) (UniProt O75914)
ROS1 (human) = ROS1 (human) (UniProt P08922)
PTK6 (human) = PTK6 (human) (UniProt Q13882)
MUSK (human) = MUSK (human) (UniProt O15146)
MAP3K2 (human) = MAP3K2 (human) (UniProt Q9Y2U5)
PRKCA (human) = PRKCA (human) (UniProt P17252)
TAOK1 (human) = TAOK1 (human) (UniProt Q7L7X3)
STK25 (human) = STK25 (human) (UniProt O00506)
FES (human) = FES (human) (UniProt P07332)
PRKG2 (human) = PRKG2 (human) (UniProt Q13237)
GRK6 (human) = GRK6 (human) (UniProt P43250)
ACVRL1 (human) = ACVRL1 (human) (UniProt P37023)

## O=C1c2ccccc2-[n+]2ccc3c([nH]c4ccccc43)c21
BLK (human)
  residual activity: 99.2%
EPHA4 (human)
  residual activity: 95.6%
CSNK1G1 (human)
  residual activity: 110%
CAMK2B (human)
  residual activity: 104%
CSNK1G2 (human)
  residual activity: 110%
NEK2 (human)
  residual activity: 77.1%
TXK (human)
  residual activity: 99.7%
DAPK1 (human)
  residual activity: 101%
CSNK1D (human)
  residual activity: 101%
BRAF (human)
  residual activity: 95.7%
EGFR (human)
  residual activity: 96.8%
VRK1 (human)
  residual activity: 84.8%
PASK (human)
  residual activity: 93.3%
CDC42BPA (human)
  residual activity: 89.7%
SGK3 (human)
  residual activity: 95.5%
RPS6KB1 (human)
  residual activity: 96.9%
SRPK3 (human)
  residual activity: 81.9%
AURKB (human)
  residual activity: 87.9%
PAK1 (human)
  residual activity: 90.8%
MAPK12 (human)
  residual activity: 96.2%
IRAK4 (human)
  residual activity: 90.8%
DAPK3 (human)
  residual activity: 87.1%
TYRO3 (human)
  residual activity: 81.1%
SYK (human)
  residual activity: 92.5%
GSG2 (human)
  residual activity: 90.5%
STK10 (human)
  residual activity: 95.6%
ALK (human)
  residual activity: 94.6%
WNK2 (human)
  residual activity: 102%
MST4 (human)
  residual activity: 98.6%
ZAP70 (human)
  residual activity: 91.2%
PAK3 (human)
  residual activity: 98.2%
ROS1 (human)
  residual activity: 95.5%
PTK6 (human)
  residual activity: 104%
MUSK (human)
  residual activity: 102%
MAP3K2 (human)
  residual activity: 105%
PRKCA (human)
  residual activity: 74.2%
TAOK1 (human)
  residual activity: 95.5%
STK25 (human)
  residual activity: 103%
FES (human)
  residual activity: 96.5%
PRKG2 (human)
  residual activity: 122%
GRK6 (human)
  residual activity: 75.5%
ACVRL1 (human)
  residual activity: 102%

## COc1cc(OC)c(/C=C2\C(=O)Nc3ccccc32)c(OC)c1
BLK (human)
  residual activity: 106%
EPHA4 (human)
  residual activity: 98.6%
CSNK1G1 (human)
  residual activity: 98.9%
CAMK2B (human)
  residual activity: 103%
CSNK1G2 (human)
  residual activity: 95.2%
NEK2 (human)
  residual activity: 107%
TXK (human)
  residual activity: 99.2%
DAPK1 (human)
  residual activity: 99.3%
CSNK1D (human)
  residual activity: 55.5%
BRAF (human)
  residual activity: 98.3%
EGFR (human)
  residual activity: 96.5%
VRK1 (human)
  residual activity: 83.2%
PASK (human)
  residual activity: 92.9%
CDC42BPA (human)
  residual activity: 88.7%
SGK3 (human)
  residual activity: 103%
RPS6KB1 (human)
  residual activity: 84.8%
SRPK3 (human)
  residual activity: 92.9%
AURKB (human)
  residual activity: 89.5%
PAK1 (human)
  residual activity: 94.1%
MAPK12 (human)
  residual activity: 91.1%
IRAK4 (human)
  residual activity: 125%
DAPK3 (human)
  residual activity: 98.1%
TYRO3 (human)
  residual activity: 90.5%
SYK (human)
  residual activity: 86.4%
GSG2 (human)
  residual activity: 85.5%
STK10 (human)
  residual activity: 95.8%
ALK (human)
  residual activity: 95.3%
WNK2 (human)
  residual activity: 98.6%
MST4 (human)
  residual activity: 81.7%
ZAP70 (human)
  residual activity: 100%
PAK3 (human)
  residual activity: 101%
ROS1 (human)
  residual activity: 94.4%
PTK6 (human)
  residual activity: 98.8%
MUSK (human)
  residual activity: 96%
MAP3K2 (human)
  residual activity: 94%
PRKCA (human)
  residual activity: 91.1%
TAOK1 (human)
  residual activity: 102%
STK25 (human)
  residual activity: 87.5%
FES (human)
  residual activity: 97.1%
PRKG2 (human)
  residual activity: 108%
GRK6 (human)
  residual activity: 109%
ACVRL1 (human)
  residual activity: 101%
